From US20210024596A1

How the values were obtained:
prothrombin (human) [1] = molecular target: prothrombin (human) (UniProt P00734); assay: SPR (Biocore X-100), histone captured on SA chip, prothrombin injected; histone H2B
prothrombin (human) [2] = molecular target: prothrombin (human) (UniProt P00734); assay: SPR (Biocore X-100), histone captured on SA chip, prothrombin injected; histone H4
prothrombin (human) [3] = molecular target: prothrombin (human) (UniProt P00734); assay: cell-based or functional assay
prothrombin (human) [4] = molecular target: prothrombin (human) (UniProt P00734); assay: SPR (Biocore X-100), histone captured on SA chip, prothrombin injected; histone H3

Kd (prothrombin (human) [1])	Kd (prothrombin (human) [2])	thrombin generated in 90 seconds (prothrombinase activity), phospholipids absent (prothrombin (human) [3])	thrombin generated in 90 seconds (prothrombinase activity), phospholipids present (prothrombin (human) [3])	Kd (prothrombin (human) [4])	Substance
330 nM					histone H2B (from UniProt Q16778 2-126)
	440 nM	4.42 nmol/L	4.71 nmol/L		histone H4 (from UniProt P62805 2-103)
		3.03 nmol/L	3.43 nmol/L	680 nM	histone H3 (from UniProt P68431 2-136)
